{"sequences": {"note": "Chains of the proteins cited; added tags and fusions are not shown. Residues count along the entry.", "UniProt P05067, 18-42": "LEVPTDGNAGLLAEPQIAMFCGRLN"}, "source": "patent US6462171B1", "about": "“Peptides and pharmaceutical compositions thereof for treatment of disorders or diseases associated with abnormal protein folding into amyloid or amyloid-like deposits” (New York University, priority 1995, dated 2002)", "key": {"Aβ1-40": {"system": "Aβ1-40", "assay": "Thioflavine T fluorometric assay of amyloid formation by Aβ1-40", "format": "biochemical", "conditions": "amyloid remaining; 30 μg Aβ with 10-fold molar excess of peptide, 2 days, room temperature, 0.1M tris pH 7.6; Aβ alone = 100"}, "Aβ1-42": {"biological_target": "Aβ1-42 (Homo sapiens, UniProt P05067)", "assay": "Thioflavine T fluorometric assay of amyloid formation by Aβ1-42", "format": "biochemical", "conditions": "amyloid remaining; 30 μg Aβ with 10-fold molar excess of peptide, 2 days, room temperature, 0.1M tris pH 7.6; Aβ alone = 100"}}, "data": [{"substance": "Aβ10-20: short Aβ fragment (YEVHHQKLVFF) [reference compound]", "values": [{"measurement": "% of amyloid Aβ1-40", "setting": "Aβ1-40", "result": "73.1 ± 0.9", "unit": "%"}, {"measurement": "% of amyloid Aβ1-42", "setting": "Aβ1-42", "result": "80.9 ± 1.6", "unit": "%"}]}]}
